System: SW480
Assay: drug sensitivity score (DSS, integrated dose-response area); higher = more sensitive (stronger viability reduction); extreme values may be limits of the assay
Outline: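 After 7 days of induction with 0.1 µg/mL doxycycline, SW480 cells stably harbouring inducible control or SND1-targeting shRNA were plated at 1000 cells per well in 384-well plates preloaded with 525 small-molecule inhibitors at five concentrations. CellTiter-Glo viability readings were taken 72 h later. Drug sensitivity scores come from integrating the area under a fitted non-linear dose–response model.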

Which results are given for `NCc1ccc(OCCCc2sc(-c3ccc4c(c3)/C(=N/Nc3nc5ccccc5s3)CCC4)nc2C(=O)O)cc1` [WEHI-539]?
drug sensitivity score (shRNA: SND1 shRNA1 (SND1 silenced)): 4.6 DSS; drug sensitivity score (shRNA: SND1 shRNA2 (SND1 silenced)): 3.3 DSS; drug sensitivity score (shRNA: control shRNA (non-targeting)): 4.1 DSS

From the supplement of paper PMC9265050, “Inhibition of RNA Binding in SND1 Increases the Levels of miR-1-3p and Sensitizes Cancer Cells to Navitoclax” (Cancers, 2022)
